In ChEMBL document CHEMBL1121641, “Synthesis and anticonvulsant activity of N-(benzoylalkyl)imidazoles and N-(omega-phenyl-omega-hydroxyalkyl)imidazoles” (J Med Chem, 1981) one finds LD50 data, which are given here for 1 compound.

SMILES strings stand for the structures.

Series [1] in a line: Lethal dose determined in mice after oral administration. In kind it is toxicity, organism-based. Particulars: mouse, in vivo. The gist of the method: (§1)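 Mice dosed ip or po with aqueous solution or suspension in 10% aqueous acacia gum, 10 animals per dose. Mortality recorded over 7 days, with behavioural symptoms observed by the Irwin scheme. LD50 derived from dose–mortality data.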

The nature of series [2]: Lethal dose in mice determined after intraperitoneal administration. In kind it is toxicity, organism-based. To be noted: mouse, in vivo, ip. In outline:
as §1

The LD50 is the dose expected to kill half of the subjects tested. High values mean a less toxic substance, low ones a more toxic substance. In the case of `Cl.O=C1NC(=O)C(c2ccccc2)(c2ccccc2)N1` [PHENYTOIN CHLORIDE], the LD50 in series [1] came to 284 mg/kg; in series [2] it was 194 mg/kg.
